# The list shows a part of the results, in another mix than the full data. Calls of active or inactive are those of the source.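 Rule for the calls: active = growth inhibition of the mutant yeast at or above 50%; inactive = the rest.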
# Experiment: growth inhibition of tim23-1 ts yeast – luminescence, uHTS, primary screen (AID 463212);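 note: temperature-sensitive mutant grown at 25 °C; plate controls were DMSO-treated mutant yeast for no effect and medium wells lacking yeast for full effect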
# Settings: S. cerevisiae tim23-1 growth, BacTiter-Glo luminescence, 24 h; at 20 µM; hits give high values
row,SMILES,inhibition
1,C(Cc1nn[nH]n1)Cc1nn[nH]n1,inactive: 14.5%
2,Nc1ccc([As](=O)(O)c2ccc([N+](=O)[O-])cc2)cc1,inactive: -1.01%
3,O=C(OC1CN2CCC1CC2)c1cccc(Cl)c1 (stereo not given),inactive: -7.57%
4,O=[N+]([O-])c1ncn(CCn2cnc([N+](=O)[O-])n2)n1,inactive: 7.87%
5,O=[As](O)(c1ccccc1)c1ccc(O)cc1,inactive: -4.72%
6,c1nnnn1CCn1cnnn1,inactive: 8.94%
7,O=P(Nc1nccs1)(c1ccccc1)c1ccccc1,inactive: 1.49%
8,CC(C)C(=O)NC(Sc1ccccc1)C(Cl)(Cl)Cl (stereo not given),inactive: 7.25%
9,CC(=O)N1C2C3N(C(C)=O)C1C1N(C(C)=O)C(C(N1C(C)=O)N3C(C)=O)N2C(C)=O,inactive: 5.59%
10,O=[N+]([O-])c1cccc2n[nH]nc12,inactive: 17.4%
11,Cc1ccc(NP(=O)(Oc2ccccc2)Oc2ccccc2)nc1,inactive: 21.3%
12,O=[N+]([O-])c1cc([N+](=O)[O-])c(CCNc2ccccc2)c([N+](=O)[O-])c1,active: 74.5%
13,CCc1nc2c(n1)c1c(non1O)c1c2no[n+]1[O-],inactive: 1.33%
14,COc1ccc(C2=NCC(CBr)S2)cc1 (stereo not given),inactive: 22.7%
15,CC(C)=N/N=C(\N)N[N+](=O)[O-],inactive: 2.2%
16,CN(C)C(=O)OCCc1n(C)cc[n+]1C,inactive: -4.83%
17,CC1CCN(C(=O)Oc2c(Cl)cc(Cl)c3cccnc23)CC1,inactive: 32.6%
18,Nc1ccc([As](=O)(O)c2ccc(N)cc2)cc1,inactive: 2.09%
19,C[N+]1=C2C=CC=CC=C2SC12C([N+](=O)[O-])=CC([N+](=O)[O-])=C[C-]2[N+](=O)[O-] (stereo not given),active: 88.6%
20,CCN(/C(=N/P(=O)(N1CCOCC1)N1CCOCC1)N1CCOCC1)c1ccc(OC)cc1,inactive: -3.27%
21,O=C(Nc1cc([As](=O)(O)O)ccc1O)c1ccccc1,inactive: 19.9%
22,O=[N+]([O-])c1cccc(NC2=NCC(CBr)S2)c1 (stereo not given),inactive: 8.8%
23,CC(C)(C)C(=O)NC(Sc1ccncn1)C(Cl)(Cl)Cl (stereo not given),inactive: 8.38%

row,SMILES,inhibition
1,O=[N+]([O-])c1ncn(CCn2ncnc2[N+](=O)[O-])n1,inactive: -1.54%
2,Cc1cc(SC(NC(=O)c2ccc(F)cc2)C(Cl)(Cl)Cl)ncn1 (stereo not given),inactive: 13.9%
3,CCOP(=O)(Nc1ccccc1)OCC,inactive: 15.1%
4,CN(C(=O)Cc1ccc(Cl)c(Cl)c1)[C@H]1CCCC[C@@H]1N1CCCC1,inactive: 11.3%
5,Cc1ccc(NP(=O)(Oc2ccccc2F)Oc2ccccc2F)nc1,inactive: 19.7%
6,CC(=O)Nc1ccc([As](=O)(O)O)cc1,inactive: 14.1%
7,O=C(O)c1ccccc1[As](=O)(O)O,inactive: -3.33%
8,O=P(Nc1nc2ccc(Cl)cc2s1)(c1ccccc1)c1ccccc1,inactive: 25.7%
9,CCN(N=Nc1nonc1N)c1nonc1N,inactive: 4.13%
10,O=[N+]([O-])c1cc([N+](=O)[O-])c(CCN2CCOCC2)c([N+](=O)[O-])c1,inactive: 47.9%
11,COc1ccccc1OP(=O)(Nc1ccc(C)cn1)Oc1ccccc1OC,inactive: 11.8%
12,Cc1ccc(OP(=O)(Nc2nccs2)Oc2ccc(C)cc2)cc1,inactive: 13.1%
13,CN1CCCC(OC(=O)C(c2ccccc2)c2ccccc2)C1 (stereo not given),inactive: -21.5%
14,Clc1ccc(Cl)c(NC2=NCC(CBr)S2)c1 (stereo not given),inactive: 24.7%
15,NC(=O)c1cc([N+](=O)[O-])cc([N+](=O)[O-])c1N,inactive: -14.4%
16,CN(C(=O)Cc1ccc(Cl)c(Cl)c1)[C@H]1CCCC[C@H]1N1CCCC1,inactive: -0.753%
17,Cc1ccc(N/C(=N/P(=O)(N2CCOCC2)N2CCOCC2)N2CCOCC2)cc1,inactive: -0.592%
18,Nc1cc(N)c2nonc2c1[N+](=O)[O-],inactive: -2.48%
19,CC(C)CC(=O)NC(Sc1ccc(Cl)cc1)C(Cl)(Cl)Cl (stereo not given),inactive: 16.9%
20,Oc1ccccc1CNc1ccccn1,inactive: 15.5%
21,O=C(NC(Sc1ccncn1)C(Cl)(Cl)Cl)c1ccccc1 (stereo not given),inactive: 1.61%
22,Cc1c2non([O-])c-2c(C)[n+](=O)[n+]1[O-],inactive: 8.73%
